This is an account of results in US20110111972A1, “SELECTIVITY PROFILING OF PI3K INTERACTING MOLECULES AGAINST MULTIPLE TARGETS” (CELLZOME AG, priority 2008, published 2011).

Chains of the proteins cited; added tags and fusions are not shown. Lines headed by an entry give the natural chain unless they say otherwise; changes in a name come on top.
UniProt P48736: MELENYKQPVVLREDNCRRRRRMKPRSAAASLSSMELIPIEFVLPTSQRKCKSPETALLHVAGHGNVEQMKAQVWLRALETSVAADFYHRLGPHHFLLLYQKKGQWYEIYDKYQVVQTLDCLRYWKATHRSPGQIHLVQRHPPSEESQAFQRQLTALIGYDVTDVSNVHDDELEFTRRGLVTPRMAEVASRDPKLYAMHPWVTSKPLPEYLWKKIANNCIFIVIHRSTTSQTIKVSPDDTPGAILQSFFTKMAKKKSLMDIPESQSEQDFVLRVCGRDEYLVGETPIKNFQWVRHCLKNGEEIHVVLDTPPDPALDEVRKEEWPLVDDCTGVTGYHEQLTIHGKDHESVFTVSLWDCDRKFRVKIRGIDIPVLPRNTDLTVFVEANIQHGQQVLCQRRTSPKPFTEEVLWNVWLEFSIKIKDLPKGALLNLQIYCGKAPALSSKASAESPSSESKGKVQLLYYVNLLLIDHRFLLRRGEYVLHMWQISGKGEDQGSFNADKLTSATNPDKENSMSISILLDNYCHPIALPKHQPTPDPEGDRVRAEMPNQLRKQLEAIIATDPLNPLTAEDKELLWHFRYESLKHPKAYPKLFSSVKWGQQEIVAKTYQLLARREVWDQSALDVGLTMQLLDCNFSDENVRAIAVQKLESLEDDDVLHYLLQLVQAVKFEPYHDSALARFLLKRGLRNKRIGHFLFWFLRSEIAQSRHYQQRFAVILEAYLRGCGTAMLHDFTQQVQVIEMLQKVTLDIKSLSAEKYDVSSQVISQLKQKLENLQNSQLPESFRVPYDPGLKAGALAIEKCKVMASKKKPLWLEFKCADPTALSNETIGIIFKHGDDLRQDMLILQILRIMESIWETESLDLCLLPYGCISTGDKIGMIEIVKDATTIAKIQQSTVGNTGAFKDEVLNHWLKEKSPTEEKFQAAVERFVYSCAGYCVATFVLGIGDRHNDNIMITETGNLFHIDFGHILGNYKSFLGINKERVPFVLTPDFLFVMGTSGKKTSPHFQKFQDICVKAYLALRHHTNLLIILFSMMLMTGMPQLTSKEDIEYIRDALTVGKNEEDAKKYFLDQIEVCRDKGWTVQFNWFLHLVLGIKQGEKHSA

Assay [1] has as its target T1, PI3K gamma (Homo sapiens, UniProt P48736). Put plainly: Competitive binding assay for PI3K gamma interacting compounds in cell lysate (dot blot).
In assay [2] the target is T1, PI3K gamma. Briefly: Elution assay for PI3K gamma interacting compounds (elution from immobilized phenylthiazole ligand 1, dot blot). The class given is binding. Set-up: PI3K gamma protein was captured by immobilized phenylthiazole ligand 1 from MOLT-4 cell lysate; endogenous in cells; host or cells: MOLT-4 (ATCC CRL-1582) cell lysate. To be noted: elution of PI3K gamma captured from MOLT-4 cell lysate by immobilized phenylthiazole ligand 1.

For the compound `O=c1cc(N2CCOCC2)oc2c(-c3ccccc3)cccc12` [Compound 1], the values for the IC50 at PI3K gamma [1] and on PI3K gamma [2] were > 30 µM and > 100 µM, respectively.
